# According to PubChem BioAssay AID1259421 (Broad Institute, 2018):
# This is a selection; strong and weak results do not stand in their true shares. Calls of active or inactive are those of the source. No stated cut-off is given here; in the data, active means activity change below about -70%; inconclusive means no clear call, values can overlap the other calls; inactive means above that.
# Assay: T. gondii ME49Luc in HeLa cells, luciferase assay, 72 h, no IFN-y (AID 1259421)
# Conditions: hits give low values, concentration not given here
row,Compound,"activity change, negative = inhibition"
1,OCCSCCO,inactive: 11.9%
